Patent publication EP2710378B1, “METHOD TO PROGNOSE VIRAL INFECTION BY MEASURING T CELL RESPONSE OR AUTO-ANTIBODIES TO APOPTOTIC EPITOPES” (Università degli Studi di Roma "La Sapienza", priority 2011, dated 2012)
Where two headings read alike, the source gives them in different places.

Columns and labels:
[1] = biological target: A*0206 (Homo sapiens, UniProt P04439, D140Y/D185E/D98H/E176V/E277Q/F33Y/G131W/G231S/I119V/I121R/I166T/I218V/L300P/L318F/N151K/N90K/P208A/P217A/Q86G/Q94H/R138H/R169H/T345S); assay: HLA-A2 binding affinity of synthetic peptides (A*0206); details: read-out: Binding capacity (IC50§ nM) A*0206
[2] = system: HLA-A2; assay type: binding, Human
[3] = biological target: A*6802 (Homo sapiens, UniProt P04439, A269V/D140Y/D185E/E176V/E277Q/E87N/F33Y/G231S/I121R/I166T/I218V/L180W/L300P/L318F/N151K/P208A/P217A/Q86R/R138H/R169H/S129P/T345S/V36M); assay: HLA-A2 binding affinity of synthetic peptides (A*6802); details: read-out: Binding capacity (IC50§ nM) A*6802
[4] = biological target: A*0201 (Homo sapiens, UniProt P04439, D140Y/D185E/D98H/E176V/E277Q/G131W/G231S/I119V/I121R/I166T/I218V/L300P/L318F/N151K/N90K/P208A/P217A/Q86G/Q94H/R138H/R169H/T345S); assay: HLA-A2 binding affinity of synthetic peptides (A*0201); details: read-out: Binding capacity (IC50§ nM) A*0201; HLA-A2 binding affinity of synthetic peptides; 50% inhibitory nanomolar concentration; dash = IC50 >50000 nM
[5] = number of the five alleles A*0201, A*0202, A*0203, A*0206, A*6802 bound
[6] = HLA-A2 binding affinity of synthetic peptides, 50% inhibitory nanomolar concentration, dash = IC50 >50000 nM

| SMILES | Alleles bound [2, 5] | IC50 [3, 6] [nM] | also measured |
| --- | --- | --- | --- |
| CC[C@H](C)[C@H](NC(=O)[C@H](CCCNC(=N)N)NC(=O)[C@H](CC(=O)O)NC(=O)[C@H](CCC(=O)O)NC(=O)[C@H](CO)NC(=O)CNC(=O)[C@H](CCC(=O)O)NC(=O)[C@@H](NC(=O)[C@@H]1CCCN1)[C@@H](C)CC)C(=O)O [compound 23] | 0 |  | IC50 ([1]; cells printed as dash): > 50000 nM |
| CC[C@H](C)[C@H](NC(=O)[C@H](Cc1ccc(O)cc1)NC(=O)[C@H](CCC(N)=O)NC(=O)[C@H](CC(C)C)NC(=O)[C@@H](N)CCC(N)=O)C(=O)N[C@@H](CCC(=O)O)C(=O)N[C@@H](CCCNC(=N)N)C(=O)N[C@@H](CCC(=O)O)C(=O)N[C@@H](CCC(=O)O)C(=O)N[C@H](C(=O)O)C(C)C [compound 39] | 2 |  | IC50 ([3]; cells printed as dash): > 50000 nM |
| CC[C@H](C)[C@H](NC(=O)[C@H](CCC(N)=O)NC(=O)[C@H](CO)NC(=O)[C@H](CCC(=O)O)NC(=O)[C@H](CC(C)C)NC(=O)[C@@H](N)CCC(=O)O)C(=O)N[C@@H](CO)C(=O)N[C@@H](CCC(=O)O)C(=O)N[C@@H](CC(C)C)C(=O)O [compound 144] | 1 | > 50000 | IC50 [4]: > 50000 nM |
| CC[C@H](C)[C@H](N)C(=O)N[C@@H](CC(C)C)C(=O)N[C@@H](CCC(=O)O)C(=O)N[C@@H](CC(=O)O)C(=O)N[C@@H](CCC(N)=O)C(=O)N[C@@H](CC(N)=O)C(=O)N[C@@H](CS)C(=O)N[C@@H](CCCCN)C(=O)N[C@@H](CC(C)C)C(=O)O [compound 115] | 2 | > 50000 |  |
| CC[C@H](C)[C@H](NC(=O)[C@@H](N)CCCCN)C(=O)N[C@@H](CCC(=O)O)C(=O)N[C@@H](CCSC)C(=O)N[C@@H](CC(=O)O)C(=O)N[C@@H](CC(C)C)C(=O)N[C@@H](CCCCN)C(=O)N[C@@H](CC(=O)O)C(=O)N[C@@H](CC(C)C)C(=O)O [compound 173] | 0 | > 50000 |  |
| CC[C@H](C)[C@H](NC(=O)[C@H](CCC(N)=O)NC(=O)[C@H](CCC(=O)O)NC(=O)[C@H](CCC(=O)O)NC(=O)[C@H](Cc1ccccc1)NC(=O)[C@@H](NC(=O)[C@H](CCCCN)NC(=O)[C@H](CCCCN)NC(=O)[C@H](CC(C)C)NC(=O)[C@@H](N)CCCCN)[C@@H](C)CC)C(=O)O [compound 156] | 1 | > 50000 | IC50 [1, 6]: > 50000 nM |
| CC(C)C[C@H](NC(=O)[C@@H](N)CCC(=O)O)C(=O)N[C@@H](CCCNC(=N)N)C(=O)N[C@@H](CO)C(=O)N[C@@H](CCCCN)C(=O)N[C@@H](CCCNC(=N)N)C(=O)N[C@@H](CCC(=O)O)C(=O)N[C@@H](CCC(N)=O)C(=O)N[C@@H](CCC(=O)O)C(=O)N[C@H](C(=O)O)C(C)C [compound 183] | 0 | 3030 | IC50 [4]: 18800 nM; IC50 [1, 6]: > 50000 nM |
| CC(C)C[C@H](NC(=O)[C@H](C)N)C(=O)N[C@@H](CCCNC(=N)N)C(=O)N[C@H](C(=O)N[C@@H](CC(=O)O)C(=O)N[C@@H](Cc1ccc(O)cc1)C(=O)N[C@@H](CC(N)=O)C(=O)N[C@@H](C)C(=O)N[C@@H](CO)C(=O)N[C@H](C(=O)O)C(C)C)[C@@H](C)O [compound 16] | 4 |  |  |
| CC(C)C[C@H](NC(=O)[C@H](CCC(=O)O)NC(=O)[C@@H](NC(=O)[C@H](CCCCN)NC(=O)[C@H](CC(C)C)NC(=O)[C@H](C)NC(=O)[C@H](CCC(=O)O)NC(=O)[C@H](CC(C)C)NC(=O)[C@@H](N)CCC(=O)O)[C@@H](C)O)C(=O)O [compound 168] | 0 |  |  |
| CC(C)C[C@H](NC(=O)[C@H](CC(=O)O)NC(=O)[C@@H](NC(=O)[C@H](CC(C)C)NC(=O)[C@H](CC(C)C)NC(=O)[C@H](CC(=O)O)NC(=O)[C@H](CC(=O)O)NC(=O)[C@H](CC(C)C)NC(=O)[C@@H](N)CCC(=O)O)C(C)C)C(=O)O [compound 150] | 1 |  |  |
| CC(C)C[C@H](NC(=O)[C@H](CCCCN)NC(=O)[C@H](C)NC(=O)[C@H](CC(=O)O)NC(=O)[C@H](CCC(=O)O)NC(=O)[C@@H](NC(=O)[C@H](C)NC(=O)[C@H](CCC(N)=O)NC(=O)[C@H](CC(C)C)NC(=O)[C@@H](N)CCC(=O)O)[C@@H](C)O)C(=O)O [compound 159] | 1 |  |  |
| CC[C@H](C)[C@H](NC(=O)[C@H](C)NC(=O)[C@H](Cc1ccc(O)cc1)NC(=O)[C@@H](NC(=O)[C@H](Cc1c[nH]cn1)NC(=O)[C@@H]1CCCN1C(=O)[C@@H]1CCCN1C(=O)[C@H](CCSC)NC(=O)[C@@H](N)CCC(=O)O)[C@@H](C)CC)C(=O)O [compound 62] |  |  | IC50 ([1]; 50% inhibitory nanomolar concentration): 85 nM |
| CC(C)C[C@H](NC(=O)[C@@H](N)C(C)C)C(=O)N[C@@H](CCCCN)C(=O)N[C@@H](CCC(=O)O)C(=O)NCC(=O)N[C@@H](CO)C(=O)N[C@@H](CCC(=O)O)C(=O)N[C@@H](Cc1ccc(O)cc1)C(=O)N[C@@H](CCCNC(=N)N)C(=O)N[C@H](C(=O)O)C(C)C [compound 188] | 4 |  |  |
| CSCC[C@H](NC(=O)[C@@H](N)CCC(=O)O)C(=O)N[C@@H](CC(=O)O)C(=O)N[C@@H](CCCCN)C(=O)N[C@@H](CC(=O)O)C(=O)N[C@@H](CC(=O)O)C(=O)N[C@@H](CCC(=O)O)C(=O)N[C@@H](CO)C(=O)N[C@@H](CC(C)C)C(=O)O [compound 190] | 3 |  |  |
| CC[C@H](C)[C@H](NC(=O)[C@H](C)NC(=O)[C@H](Cc1ccc(O)cc1)NC(=O)[C@@H](NC(=O)[C@H](Cc1c[nH]cn1)NC(=O)[C@@H]1CCCN1C(=O)[C@@H]1CCCN1C(=O)[C@H](CCSC)NC(=O)[C@@H](N)CCC(=O)O)[C@@H](C)CC)C(=O)O |  |  | IC50 ([1]; Table 11, peptides derived from apoptotic cell-associated proteins, pools 1-4): 85 nM |
| CC[C@H](C)[C@H](NC(=O)[C@H](Cc1c[nH]cn1)NC(=O)[C@H](C)NC(=O)[C@H](CCC(=O)O)NC(=O)[C@H](CC(C)C)NC(=O)[C@H](CC(=O)O)NC(=O)[C@H](CCCCN)NC(=O)[C@H](CC(C)C)NC(=O)[C@@H](N)CC(=O)O)C(=O)O [compound 174] | 0 | 21100 | IC50 [4]: > 50000 nM; IC50 [1, 6]: > 50000 nM |
| CC(C)C[C@H](NC(=O)CNC(=O)[C@H](Cc1c[nH]cn1)NC(=O)[C@H](CCCCN)NC(=O)[C@@H](NC(=O)[C@H](CC(C)C)NC(=O)[C@H](CCC(=O)O)NC(=O)[C@H](CC(N)=O)NC(=O)[C@H](CC(C)C)NC(=O)[C@@H](N)CC(N)=O)C(C)C)C(=O)O [compound 233] |  |  | Alleles bound ([2]; Table 9, peptides derived from not fragmented proteins, number of the five HLA-A2 alleles bound): 3 |
| CSCC[C@H](NC(=O)[C@H](CC(C)C)NC(=O)[C@@H](N)CC(=O)O)C(=O)N[C@@H](CO)C(=O)N[C@@H](CO)C(=O)N[C@@H](CCCCN)C(=O)N[C@@H](CC(=O)O)C(=O)N[C@@H](CC(=O)O)C(=O)N[C@H](C(=O)O)C(C)C [compound 151] | 1 |  | IC50 [1, 6]: > 50000 nM |
| CC[C@H](C)[C@H](NC(=O)[C@H](CCCNC(=N)N)NC(=O)[C@H](Cc1ccc(O)cc1)NC(=O)[C@H](CC(C)C)NC(=O)[C@H](CC(N)=O)NC(=O)[C@H](CO)NC(=O)[C@H](CC(=O)O)NC(=O)[C@H](CC(C)C)NC(=O)[C@@H](N)CCC(=O)O)C(=O)O [compound 134] | 1 |  |  |
| CC(C)C[C@H](NC(=O)[C@H](CC(N)=O)NC(=O)[C@H](CC(C)C)NC(=O)[C@H](CO)NC(=O)[C@H](CO)NC(=O)[C@H](Cc1ccccc1)NC(=O)[C@H](CC(N)=O)NC(=O)[C@@H]1CCCN1C(=O)[C@H](CC(C)C)NC(=O)[C@@H]1CCCN1)C(=O)O [compound 227] |  |  | Alleles bound ([2]; Table 8, peptides derived from fragmented proteins, number of the five HLA-A2 alleles bound): 1 |
